## Ab-91 heavy chain CDR variants: yeast mating affinities

From the AlphaSeq antibody data of Engelhart et al. 2022 (doi:10.1038/s41597-022-01779-4), copy in the FLAb collection.

The target is the same throughout: PDVDLGDISGINAS, from the HR2 region of SARS-CoV-2 spike.

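Phage display of a naive human antibody library on the peptide gave the parent. AAYL51 was designed without a model: most single CDR substitutions and a random sample of double and triple ones. The assay is AlphaSeq: two haploid yeast populations carry antibody and antigen on their surface. The frequency of each diploid, read from paired DNA barcodes, reflects how well the two displayed proteins bind. The ratio of observed to expected reads was calibrated, replicate by replicate, on BCL2-family standards whose Kd was known from biolayer interferometry. Mating was done three times.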

The variants keep the light chain, the linker and the frameworks of Ab-91 (scFv order VL, three GGGGS repeats, VH).
VL: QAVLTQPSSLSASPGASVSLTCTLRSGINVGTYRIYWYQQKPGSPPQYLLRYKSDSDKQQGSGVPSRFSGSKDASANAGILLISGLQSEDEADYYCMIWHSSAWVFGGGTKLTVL
VH: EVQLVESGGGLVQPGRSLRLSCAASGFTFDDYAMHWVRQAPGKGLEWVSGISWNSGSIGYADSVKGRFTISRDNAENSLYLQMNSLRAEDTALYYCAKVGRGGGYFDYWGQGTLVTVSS

Positions count from residue 1 of the parent VH; M34F puts F in place of M. This list gathers variants with a substitution at W53 (VH, numbered from residue 1). The read-out is the apparent dissociation constant on a log10 scale (nM): the lower, the stronger. An entry "ND" has no value in the source: the pair was not observed among the diploids in that replicate. This suggests poor binding but is not conclusive. For reference, the parent read 1.86 as the reference entry and 0.88 as a member of this library. As a blank, each scFv also met three strains without target: over library AAYL51, 21% of these pairings were detected, typically at 4.54 and seldom below 3.26.

changes	log10 Kd, replicates
M34F+W53Y+S55A	1.91 1.70 1.72
D31M+W53H+N54R	ND ND ND
W53P+F106V+Y108L	4.91 ND 3.80
I51L+W53P+Y105D	4.22 5.91 4.16
A33Y+W53K+G56H	5.52 5.20 5.64
H35A+W53N+S63A	ND 3.86 ND
W53D+G56Q+S63V	2.48 2.54 2.47
G26D+Y32P+W53G	3.14 ND 3.93
F27R+W53R+Y105D	4.76 4.38 5.69
W53K+G102W	5.03 ND ND
D30F+W53D+G104Q	ND ND ND
F29I+I51Y+W53F	4.26 ND 5.42
G50E+W53K+G103Y	ND ND ND
W53Y+D62E+V64Y	0.83 0.85 0.06
W53T	ND 6.26 ND
W53L+V99G+R101I	1.45 1.39 0.91
F27D+W53H+F106T	ND ND ND
G26W+W53V+D107V	ND 6.49 ND
D31G+W53P+G100H	5.32 ND 4.92
W53K+S55L+G104M	ND ND ND
W53L+S63I+V64T	4.66 4.48 4.94
F29D+Y32R+W53H	4.79 ND 5.18
W53Q+G59V	4.69 5.60 ND
F29I+W53R+K65H	2.21 2.40 1.75
Y32P+W53C+G56K	5.80 5.70 ND
F27S+W53I+G102E	ND ND ND
W53I+A61L+V99R	ND ND ND
Y32K+G50H+W53E	ND ND ND
W53S+G103W+D107H	ND ND ND
G50P+W53R+G104M	ND ND ND
W53V+G59A+Y108E	2.87 3.62 ND
W53P+G104P+Y105V	6.48 ND ND
F27Y+W53Y+D62W	ND ND ND
F27N+W53G+G56H	3.47 3.09 2.57
S52K+W53A+D107H	ND ND ND
D30Y+W53K+K65F	ND 5.64 ND
D31T+S52V+W53F	4.45 ND ND
W53G+G102T+Y105I	ND ND ND
Y32G+W53F+V99M	4.36 6.62 5.04
Y32T+H35T+W53M	4.28 5.21 3.97
W53M+G56W+F106C	3.46 ND ND
W53R+I58F	2.88 3.44 3.06

Extract of 3 entries:

{"changes": "G50E+W53K+G103Y", "log10 Kd, replicates": "ND ND ND"}
{"changes": "W53Q+G59V", "log10 Kd, replicates": "4.69 5.60 ND"}
{"changes": "D31T+S52V+W53F", "log10 Kd, replicates": "4.45 ND ND"}